Earlier results as cited in patent US20110052570A1, “METHOD TO PROGNOSE RESPONSE TO ANTI-EGFR THERAPEUTICS” (CHILDREN'S MEDICAL CENTER CORPORATION, priority 2005, published 2011).

Tested on: colon cancer
Conditions: colon cancer patients with scores of 0 out of a 3+ scoring system for EGFR immunoreactivity; cited from earlier work

Substance: Cetuximab: monoclonal antibody against EGFR
- patient response: responded
